Target: NADH:ubiquinone oxidoreductase (Complex I) (Bos taurus, UniProt P03887+P17694+P42026)
Assay: inhibitory potency for NADH:ubiquinone oxidoreductase activity in vitro using bovine heart electron transport particles
Type: biochemical
Experimental: This primary library was screened for inhibitory potency against NADH:ubiquinone oxidoreductase activity as described below. […] As described below, a series of focused libraries were then synthesized using a combination of solid and solution phase chemistry in an attempt to evaluate particular structural sub-regions (denoted I-IV in FIG. 9) of the lead structure, thus allowing structure activity relationships to be developed.
(§1) SAR optimization was carried out on each of the four regions (I-IV) of interest guided by the inhibitory potency for NADH:ubiquinone oxidoreductase activity in vitro using bovine heart electron transport particles (see Singer (Singer, T. P. (1974). In Methods of Biochemical Analysis (Glick, D. ed., Wiley New York), 22, pp. 123-175) for details).
as §1, with “FIG. 15 is a graphical summary of structure activity trends observed for benzopyran-based inhibitors of NADH:ubiquinone oxidoreductase. SAR” for “SAR”, “T.P.” for “T. P.”

Chains of the proteins cited; added tags and fusions are not shown. Residues count along the entry.
UniProt P03887, whole entry: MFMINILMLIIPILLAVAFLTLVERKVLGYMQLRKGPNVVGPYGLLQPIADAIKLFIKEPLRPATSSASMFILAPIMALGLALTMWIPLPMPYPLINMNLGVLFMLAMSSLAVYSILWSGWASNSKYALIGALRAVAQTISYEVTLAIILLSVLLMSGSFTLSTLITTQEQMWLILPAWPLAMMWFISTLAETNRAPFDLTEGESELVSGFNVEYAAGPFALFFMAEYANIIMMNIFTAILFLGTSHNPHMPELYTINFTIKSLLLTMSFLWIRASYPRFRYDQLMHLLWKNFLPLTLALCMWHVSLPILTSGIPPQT
UniProt P17694, 34-463 limits assumed: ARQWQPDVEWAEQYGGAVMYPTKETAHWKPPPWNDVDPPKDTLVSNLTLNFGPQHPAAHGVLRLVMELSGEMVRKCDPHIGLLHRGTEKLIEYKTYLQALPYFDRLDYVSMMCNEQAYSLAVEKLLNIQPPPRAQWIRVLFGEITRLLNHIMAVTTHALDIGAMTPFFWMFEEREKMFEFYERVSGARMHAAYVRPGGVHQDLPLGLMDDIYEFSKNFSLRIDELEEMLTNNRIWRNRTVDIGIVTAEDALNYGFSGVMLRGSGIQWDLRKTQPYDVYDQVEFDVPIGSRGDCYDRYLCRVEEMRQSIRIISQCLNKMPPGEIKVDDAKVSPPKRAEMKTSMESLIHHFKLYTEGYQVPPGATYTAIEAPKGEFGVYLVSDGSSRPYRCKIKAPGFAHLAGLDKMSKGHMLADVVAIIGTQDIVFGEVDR
UniProt P42026, 38-216 limits assumed: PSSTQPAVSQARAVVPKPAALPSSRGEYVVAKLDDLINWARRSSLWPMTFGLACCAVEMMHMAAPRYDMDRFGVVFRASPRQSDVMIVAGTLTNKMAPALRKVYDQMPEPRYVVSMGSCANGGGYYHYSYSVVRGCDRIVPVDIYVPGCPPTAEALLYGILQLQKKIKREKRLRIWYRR

Compound	IC50
COc1cc(COC(=O)c2ccc3c(c2O)C=CC(C)(C)O3)cc(OC)c1OC	44 nM
COc1cc(Br)c(COC(=O)c2ccc3c(c2)C=CC(C)(C)O3)cc1OC	49 nM

Reference: US7410998B2, “Inhibitors of NADH:ubiquinone oxidoreductase” (The Scripps Research Institute, priority 2000, dated 2008)
